# Ab-14 heavy chain CDR variants: yeast mating affinities

Binding partner: SARS-CoV-2 spike HR2 peptide, sequence PDVDLGDISGINAS.

Parent scFv Ab-14: VH joined to VL by the linker GGGGSGGGGSGGGGS. Changes lie in the heavy chain CDRs alone.
VH: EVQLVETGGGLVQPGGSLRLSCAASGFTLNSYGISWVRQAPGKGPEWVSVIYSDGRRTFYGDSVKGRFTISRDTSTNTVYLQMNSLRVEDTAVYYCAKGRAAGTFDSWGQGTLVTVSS
VL: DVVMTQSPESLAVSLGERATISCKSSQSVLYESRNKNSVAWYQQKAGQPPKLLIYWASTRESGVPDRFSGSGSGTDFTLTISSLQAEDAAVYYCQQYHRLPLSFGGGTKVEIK

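The parent was found by panning a naive human phage display library on the peptide. This is the validation round: designs drawn from the data on random variants, tested in the same kind of assay. Their group label is 14H_GPLM_Gen (GPLM: also part of the Gaussian process libraries; Gen: genetic algorithm; a sequence that several methods proposed may carry one label only). Affinity was read by AlphaSeq, a pooled yeast mating assay with surface-displayed partners. Binding brings cells together so that they mate, and sequencing counts the barcode pairs among the diploids. Scores were corrected for input abundance and mapped to Kd with protein pairs of known affinity run in the same pool. Each pool was mated in six replicate cultures.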

Positions count from residue 1 of the parent VH; G26M puts M in place of G. Numbers give log10(Kd / nM), so 0 is 1 nM and 3 is 1 µM. Smaller is tighter. Replicates are averaged; those with no signal do not enter the mean. An entry "n.d." has no value in the source: the pair was not observed among the diploids in that replicate. This suggests poor binding but is not conclusive. The authors' rule: three or more of the six replicates give a measured affinity, fewer mean a poor binder. The parent sequence was in this pool as ten entries: three were never detected, three once, and four in most replicates, with averages from 0.34 to 2.37. Values of this round are not directly comparable with the first-round values of the same sequences. Three control strains display no target. For all heavy chain designs, 1% of the pairings with them gave a signal, with a median of 2.08 and one signal in twenty below 0.84, so weak values seen in few replicates may be background. Also given: how often the same scFv was detected with the empty control strains, with their mean in brackets.

{"changes": "G26M+T28S+S31D+A101T", "replicates, log10 nM": "0.65 1.04 0.71 0.34 0.46 1.36", "mean, log10 nM": "0.76", "signal with controls": "0 of 18"}
{"changes": "T28D+G61I+R100Q", "replicates, log10 nM": "n.d. n.d. n.d. n.d. n.d. n.d.", "mean, log10 nM": "n.d.", "signal with controls": "0 of 18"}
{"changes": "T28N+G61A+A101M", "replicates, log10 nM": "n.d. n.d. 0.24 0.75 1.26 0.25", "mean, log10 nM": "0.62", "signal with controls": "0 of 18"}
{"changes": "T28Q+G61Q+A101T", "replicates, log10 nM": "1.65 1.39 1.55 1.33 1.86 2.19", "mean, log10 nM": "1.66", "signal with controls": "0 of 18"}
{"changes": "T28S+S63H+A101T", "replicates, log10 nM": "0.24 n.d. n.d. n.d. 0.01 n.d.", "mean, log10 nM": "0.13", "signal with controls": "1 of 18 (0.54)"}
{"changes": "T28S+S31D+A101Y", "replicates, log10 nM": "0.59 0.47 0.59 0.74 0.17 0.78", "mean, log10 nM": "0.56", "signal with controls": "1 of 18 (3.56)"}
{"changes": "T28S+S31D+A101K", "replicates, log10 nM": "1.06 0.78 0.69 0.52 1.00 0.70", "mean, log10 nM": "0.79", "signal with controls": "0 of 18"}
{"changes": "R56Q+G61S", "replicates, log10 nM": "1.44 0.93 0.74 0.68 1.14 1.48", "mean, log10 nM": "1.07", "signal with controls": "0 of 18"}
{"changes": "T28S+G61A+R100K+A101L", "replicates, log10 nM": "0.12 -0.01 0.05 -0.18 0.04 0.27", "mean, log10 nM": "0.05", "signal with controls": "0 of 18"}
{"changes": "T28S+G61K+A101T+S107T", "replicates, log10 nM": "0.87 0.25 0.01 -0.06 0.86 0.20", "mean, log10 nM": "0.36", "signal with controls": "0 of 18"}
{"changes": "T28S+S31D+G61I+R100Q", "replicates, log10 nM": "0.95 0.51 0.39 0.38 0.42 0.22", "mean, log10 nM": "0.48", "signal with controls": "0 of 18"}
{"changes": "T28D+R100T+A101T", "replicates, log10 nM": "-0.05 -0.14 -0.40 -0.57 -0.39 -0.45", "mean, log10 nM": "-0.33", "signal with controls": "0 of 18"}
{"changes": "T28E+G61A+A101W", "replicates, log10 nM": "n.d. 1.88 0.34 0.45 0.19 0.90", "mean, log10 nM": "0.75", "signal with controls": "0 of 18"}
{"changes": "G61I+S63D+R100N", "replicates, log10 nM": "n.d. -0.49 -0.09 -0.38 0.90 1.30", "mean, log10 nM": "0.25", "signal with controls": "0 of 18"}
{"changes": "T28S+S31E+G61A+A101N", "replicates, log10 nM": "0.54 0.49 0.17 0.15 0.89 0.52", "mean, log10 nM": "0.46", "signal with controls": "1 of 18 (2.44)"}
{"changes": "T28S+N30E+S53A", "replicates, log10 nM": "0.25 -0.34 n.d. -0.52 -0.05 -0.15", "mean, log10 nM": "-0.16", "signal with controls": "0 of 18"}
{"changes": "T28S+G61A+S63D+A101T", "replicates, log10 nM": "0.48 0.40 0.18 0.28 1.06 0.85", "mean, log10 nM": "0.54", "signal with controls": "0 of 18"}
{"changes": "S31E+S63A+R100Q+S107K", "replicates, log10 nM": "n.d. 0.75 0.22 -0.33 n.d. 2.60", "mean, log10 nM": "0.81", "signal with controls": "0 of 18"}
{"changes": "T28S+S31E+D62C+A101T", "replicates, log10 nM": "1.47 1.71 2.80 2.47 2.30 2.54", "mean, log10 nM": "2.21", "signal with controls": "0 of 18"}
{"changes": "T28D+R100E", "replicates, log10 nM": "0.64 0.29 0.08 0.40 1.23 0.71", "mean, log10 nM": "0.56", "signal with controls": "0 of 18"}

For reference, 2 entries of the list once more:

{"changes": "R56Q+G61S", "replicates, log10 nM": "1.44 0.93 0.74 0.68 1.14 1.48", "mean, log10 nM": "1.07", "signal with controls": "0 of 18"}
{"changes": "T28S+G61A+S63D+A101T", "replicates, log10 nM": "0.48 0.40 0.18 0.28 1.06 0.85", "mean, log10 nM": "0.54", "signal with controls": "0 of 18"}

Source: Li et al. 2023 (doi:10.1038/s41467-023-39022-2), MIT Lincoln Laboratory and A-Alpha Bio; data file from the FLAb repository.